Results: patent US5576341A, “2-[[2-(N-isobutyl-N-methyl)amino]benzylsulfinyl]-benzimidazole as antimicrobial agent” (Nippon Chemiphar Co., Ltd., priority 1993, dated 1996)
Values after ≈ are worked out from the molar mass of the structure shown.

How the values were obtained:
[1] = system: Helicobacter pylori standard strains and wild strains; settings: Table 1 summary
[2] = system: Helicobacter pylori standard strains and wild strains; assay: microbe, parasite or virus in culture; settings: 144 h, read-out: MIC range against the standard strains as well as wild strains

| Structure (SMILES) | antimicrobial activity to Helicobacter pylori (in words) [1] | MIC [2] [µg/mL] |
| --- | --- | --- |
| NC(N)=Nc1nc(CSCCC(N)=NS(N)(=O)=O)cs1 [Famotidine] | low antimicrobial activity | – |
| CN/C(=N/CCSCc1nc[nH]c1C)NC#N [Cimetidine] | low antimicrobial activity | – |
| CC(C)CN(C)c1ccccc1C[S+]([O-])c1nc2ccccc2[nH]1 (stereo not shown) [Compound (1), 2-[[2-(N-isobutyl-N-methyl)amino]benzylsulfinyl]benzimidazole] | comparable to Omeprazole | 12.5 to 50 (≈ 36.6 to 146 µM) |
